From patent US11001581B2, “Compounds which inhibit RNA polymerase, compositions including such compounds, and their use” (THE JOHNS HOPKINS UNIVERSITY, priority 2014, dated 2021) come the findings set out here.

The test relates to NCL. Kind of test: Determination of NCL IC50 (loss of NCL nucleolar intensity, immunofluorescence image analysis). The class given is cell-based. As to conditions: read-out: NCL (IC50 μM); U2OS cells, 3 h treatment, 0.1-10 μM, fold change to control, three-parameter fit.
For orientation: IC50 means the midpoint of a concentration-inhibition curve. As for `CCN(CCN(C)C)C(=O)c1cccn2c(=O)c3cc4ccccc4cc3nc12` [Compound 2, N-[2-(dimethylamino)ethyl]-N-ethyl-12-oxo-12H-benzo[g]pyrido[2,1-b]quinazoline-4-carboxamide], the IC50 is above 100 µM.
As for `CN(C)CCCNC(=O)c1cccn2c(=O)c3cc4ccccc4cc3nc12` [Compound 9, N-[3-(dimethylamino)propyl]-12-oxo-12H-benzo[g]pyrido[2,1-b]quinazoline-4-carboxamide], the figure is 0.48 µM; as for `CN(C)CCCCNC(=O)c1cccn2c(=O)c3cc4ccccc4cc3nc12` [Compound 10, N-[4-(dimethylamino)butyl]-12-oxo-12H-benzo[g]pyrido[2,1-b]quinazoline-4-carboxamide], 1.53 µM; as for `CN1CCC(NC(=O)c2cccn3c(=O)c4cc5ccccc5cc4nc23)CC1` [Compound 13, N-(1-methyl-4-piperidyl)-12-oxo-12H-benzo[g]pyrido[2,1-b]quinazoline-4-carboxamide], 1.38 µM.
Turning to `O=C(NC1CNC1)c1cccn2c(=O)c3cc4ccccc4cc3nc12` [Compound 14, N-(azetidin-3-yl)-12-oxo-12H-benzo[g]pyrido[2,1-b]quinazoline-4-carboxamide], the IC50 amounted to 0.18 µM.
Take `CC(C)N1CCN(C(=O)c2cccn3c(=O)c4cc5ccccc5cc4nc23)CC1` [Compound 16, 4-(4-isopropylpiperazine-1-carbonyl)-12H-benzo[g]pyrido[2,1-b]quinazoline-12-one]: the IC50 is above 100 µM.
For `CCN(CC)CCNC(=O)c1cccn2c(=O)c3cc4ccccc4cc3nc12` [Compound 20, N-[2-(diethylamino)ethyl]-12-oxo-12H-benzo[g]pyrido[2,1-b]quinazoline-4-carboxamide], the IC50 turned out to be 0.19 µM.
The same measure for `CC(C)N(CCNC(=O)c1cccn2c(=O)c3cc4ccccc4cc3nc12)C(C)C` [Compound 21, N-[2-(diisopropylamino)ethyl]-12-oxo-12H-benzo[g]pyrido[2,1-b]quinazoline-4-carboxamide]: 1.7 µM.
As for `CC(CN(C)C)NC(=O)c1cccn2c(=O)c3cc4ccccc4cc3nc12` (stereo not drawn) [Compound 27, N-[2-(dimethylamino)-1-methyl-ethyl]-12-oxo-12H-benzo[g]pyrido[2,1-b]quinazoline-4-carboxamide], the figure is 0.16 µM.
